{"sequences": {"note": "Amino acid sequences for entries named in this document (tags omitted).", "UniProt P09471, whole entry, looked up": "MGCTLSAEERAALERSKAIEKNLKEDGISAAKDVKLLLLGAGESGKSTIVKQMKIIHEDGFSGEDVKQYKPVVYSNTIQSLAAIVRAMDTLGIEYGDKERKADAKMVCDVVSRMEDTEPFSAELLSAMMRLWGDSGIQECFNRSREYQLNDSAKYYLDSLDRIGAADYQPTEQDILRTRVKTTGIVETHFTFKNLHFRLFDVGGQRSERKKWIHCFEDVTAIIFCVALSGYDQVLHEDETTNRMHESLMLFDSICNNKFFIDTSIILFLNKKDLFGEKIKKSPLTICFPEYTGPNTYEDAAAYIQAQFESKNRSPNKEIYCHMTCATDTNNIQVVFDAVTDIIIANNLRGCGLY"}, "source": "PubChem BioAssay AID1439", "about": "(NMMLSC, 2008)", "note": "Out of some 220,000 compounds screened, about 770 (0.35%) were called active. Listed are the inconclusive results; actives and inactives stand elsewhere. No stated cut-off is given here; in the data, active means binding response below about 49% or above about 150%; inconclusive means no clear call, values can overlap the other calls; inactive means in between.", "data": [{"molecular_target": "Guanine nucleotide-binding protein G(o) subunit alpha (Homo sapiens) (UniProt P09471)", "test": "compounds changing RGS7 association with Galphao – biochemical, multiplexed bead flow cytometry, primary screen (AID 1439);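 further: fluorescent Galphao held in activated GDP-AlF4 state binding bead-coupled RGS7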", "conditions": "at 10 µM, actives lie on both sides", "values": [{"smiles": "O=[As](O)(c1cccc(O)c1)c1cccc(O)c1", "binding response (% of control)": "inconclusive: 129%"}, {"smiles": "O=C(OC1CN2CCC1CC2)c1ccc(Cl)cc1", "note": "(stereo not given)", "binding response (% of control)": "inconclusive: 106%"}, {"smiles": "O=[As](O)(O)c1cccnc1", "binding response (% of control)": "inconclusive: 115%"}, {"smiles": "Nc1cccc2c([As](=O)(O)O)cccc12", "binding response (% of control)": "inconclusive: 318%"}, {"smiles": "CCCOP(=S)(Nc1nc(N)cc(=O)[nH]1)OCCC", "binding response (% of control)": "inconclusive: 91.9%"}, {"smiles": "Nc1ccccc1[As](=O)(O)c1ccccc1", "binding response (% of control)": "inconclusive: 116%"}, {"smiles": "O=C(O)COc1ccc([As](=O)(O)O)cc1[N+](=O)[O-]", "binding response (% of control)": "inconclusive: 82.8%"}, {"smiles": "CS(=O)(=O)c1cc([N+](=O)[O-])c2no[n+]([O-])c2c1", "binding response (% of control)": "inconclusive: 171%"}, {"smiles": "CN(C(=O)Cc1ccccc1)[C@@H]1CC[C@]2(CCCO2)C[C@H]1N1CCCC1", "binding response (% of control)": "inconclusive: 121%"}, {"smiles": "NC(=O)Nc1ccc([As](=O)(O)O)cc1", "binding response (% of control)": "inconclusive: 115%"}, {"smiles": "O=C(/C=C/c1ccccc1)OC1CN2CCC1CC2", "note": "(stereo not given)", "binding response (% of control)": "inconclusive: 119%"}, {"smiles": "Nc1cccc([As](=O)(O)c2ccccc2)c1", "binding response (% of control)": "inconclusive: 117%"}, {"smiles": "O=[As](O)(c1cccs1)c1cccs1", "binding response (% of control)": "inconclusive: 97.3%"}, {"smiles": "CC(C)(C)C(=O)NC(Sc1ncccn1)C(Cl)(Cl)Cl", "note": "(stereo not given)", "binding response (% of control)": "inconclusive: 87.2%"}, {"smiles": "CCOP(=O)(Nc1ccc(C)cn1)OCC", "binding response (% of control)": "inconclusive: 86.8%"}, {"smiles": "O=[As](O)(c1ccccc1Br)c1ccccc1Br", "binding response (% of control)": "inconclusive: 83.7%"}, {"smiles": "CCOC(=O)c1ccc(NC(=O)C(C)(CCl)SC)cc1", "note": "(stereo not given)", "binding response (% of control)": "inconclusive: 106%"}, {"smiles": "CCOC(=O)Nc1ccc([As](=O)(O)O)c(O)c1", "binding response (% of control)": "inconclusive: 79.4%"}, {"smiles": "O=P(Nc1ccccn1)(c1cccc2ccccc12)c1cccc2ccccc12", "binding response (% of control)": "inconclusive: 103%"}, {"smiles": "Cc1cc(SC(NC=O)C(Cl)(Cl)Cl)ncn1", "note": "(stereo not given)", "binding response (% of control)": "inconclusive: 93.9%"}, {"smiles": "O=[N+]([O-])c1ccc(Nc2ccc(Oc3ccc([N+](=O)[O-])cc3[N+](=O)[O-])cc2)c([N+](=O)[O-])c1", "binding response (% of control)": "inconclusive: 94.7%"}, {"smiles": "CCOC(=O)Nc1cccc([As](=O)(O)O)c1", "binding response (% of control)": "inconclusive: 337%"}, {"smiles": "Cc1ccc(OP(=O)(Nc2ccc([N+](=O)[O-])cn2)Oc2ccc(C)cc2)cc1", "binding response (% of control)": "inconclusive: 216%"}, {"smiles": "O=[As](O)(c1ccc(O)cc1)c1ccccc1O", "binding response (% of control)": "inconclusive: 101%"}, {"smiles": "C[As](=O)(O)c1cccc(C(=O)O)c1", "binding response (% of control)": "inconclusive: 163%"}, {"smiles": "CC(C)NC(=O)NP(=O)(Oc1ccccc1)Oc1ccccc1", "binding response (% of control)": "inconclusive: 92.7%"}, {"smiles": "CC(C)c1ccc(OP(=O)(Nc2ccccn2)Oc2ccccc2F)cc1", "note": "(stereo not given)", "binding response (% of control)": "inconclusive: 182%"}, {"smiles": "COc1cc(I)ccc1[As](=O)(O)O", "binding response (% of control)": "inconclusive: 125%"}, {"smiles": "Cc1ccc(OP(=O)(Nc2nccs2)Oc2ccc(C)cc2)cc1", "binding response (% of control)": "inconclusive: 112%"}, {"smiles": "Nc1cc(N)c2nonc2c1[N+](=O)[O-]", "binding response (% of control)": "inconclusive: 98.8%"}, {"smiles": "CCOP(=O)(Nc1ccccc1)OCC", "binding response (% of control)": "inconclusive: 82.5%"}, {"smiles": "Cc1ccc(NP(=O)(Oc2ccccc2F)Oc2ccccc2F)nc1", "binding response (% of control)": "inconclusive: 104%"}, {"smiles": "O=P(Nc1nc2ccc(Cl)cc2s1)(c1ccccc1)c1ccccc1", "binding response (% of control)": "inconclusive: 58.5%"}, {"smiles": "CC(=O)Nc1ccc([As](=O)(O)O)cc1", "binding response (% of control)": "inconclusive: 115%"}, {"smiles": "O=C(O)c1ccccc1[As](=O)(O)O", "binding response (% of control)": "inconclusive: 183%"}, {"smiles": "Nc1cccc2ccc([As](=O)(O)O)cc12", "binding response (% of control)": "inconclusive: 229%"}, {"smiles": "O=C(Nc1cc([As](=O)(O)O)ccc1O)c1ccccc1", "binding response (% of control)": "inconclusive: 44.2%"}, {"smiles": "O=C(O)CNc1ccc([As](=O)(O)O)cc1", "binding response (% of control)": "inconclusive: 69.8%"}, {"smiles": "O=[N+]([O-])c1cccc(NC2=NCC(CBr)S2)c1", "note": "(stereo not given)", "binding response (% of control)": "inconclusive: 133%"}, {"smiles": "CC(C)(C)C(=O)NC(Sc1ccncn1)C(Cl)(Cl)Cl", "note": "(stereo not given)", "binding response (% of control)": "inconclusive: 92.3%"}, {"smiles": "Cc1ccc(NP(=O)(Oc2ccccc2)Oc2ccccc2)nc1", "binding response (% of control)": "inconclusive: 99.5%"}, {"smiles": "Nc1ccc([As](=O)(O)c2ccc(N)cc2)cc1", "binding response (% of control)": "inconclusive: 96.5%"}, {"smiles": "C[N+]1=C2C=CC=CC=C2SC12C([N+](=O)[O-])=CC([N+](=O)[O-])=C[C-]2[N+](=O)[O-]", "note": "(stereo not given)", "binding response (% of control)": "inconclusive: 52.2%"}, {"smiles": "O=P(Nc1nc2ccccc2s1)(c1ccccc1)c1ccccc1", "binding response (% of control)": "inconclusive: 206%"}, {"smiles": "C[C@H]1OP(=O)(Oc2ccccc2)[C@H](O)[C@H](O)[C@H]1N=[N+]=[N-]", "note": "(stereo not given in full)", "binding response (% of control)": "inconclusive: 108%"}, {"smiles": "Nc1ccc([As](=O)(O)c2ccc([N+](=O)[O-])cc2)cc1", "binding response (% of control)": "inconclusive: -50.1%"}, {"smiles": "O=[As](O)(c1ccccc1)c1ccc(O)cc1", "binding response (% of control)": "inconclusive: 32.7%"}, {"smiles": "O=[N+]([O-])c1ncn(CCn2cnc([N+](=O)[O-])n2)n1", "binding response (% of control)": "inconclusive: 115%"}, {"smiles": "Cc1ccc(NP(=O)(Oc2cccc(C)c2)Oc2cccc(C)c2)nc1", "binding response (% of control)": "inconclusive: 107%"}, {"smiles": "O=C(NC1CCS(=O)(=O)C1)NP(=S)(Oc1ccccc1)Oc1ccccc1", "note": "(stereo not given)", "binding response (% of control)": "inconclusive: 106%"}, {"smiles": "Cc1ccccc1OP(=O)(Nc1ccccn1)Oc1ccccc1C", "binding response (% of control)": "inconclusive: 95.2%"}, {"smiles": "CN(C)C(=O)Oc1noc2ccccc12", "binding response (% of control)": "inconclusive: 82.8%"}, {"smiles": "CC(=O)Nc1ccc([As](=O)(O)O)c(O)c1", "binding response (% of control)": "inconclusive: 88.9%"}, {"smiles": "C[C@H]1OP(=O)(Oc2ccccc2)C[C@@H]2O[C@@H]21", "note": "(stereo not given in full)", "binding response (% of control)": "inconclusive: 110%"}, {"smiles": "C[C@@H]1C=CCP(=O)(Oc2ccccc2)O1", "note": "(stereo not given in full)", "binding response (% of control)": "inconclusive: 116%"}]}]}
